Experimental findings from patent US20230248660A1, “METHOD OF PREPARING LOXAPINE FILM ORAL DOSAGE FORM” (Intelgenx Corp., priority 2016, published 2023) are described below.

For this data set, the system named is Porcine buccal mucosa. The experiment in a line: Loxapine diffusion through Porcine buccal mucosa (Franz cell). To be noted: film formulation maintained at a neutral pH of from 6 to 8, or 6.5 to 7.5. As for the experimental part:
FIG. 1 graphically depicts 1 oxapine film diffusion through Porcine buccal mucosa (48-hrs-old unfrozen fresh mucosa) (Franz cell 1.76 cm2; 37° C.); saliva pH 6.8.
FIG. 2 graphically depicts 1 oxapine film diffusion through Porcine buccal mucosa (26-hrs-old unfrozen fresh mucosa) (Franz cell 1.76 cm2; 37° C.); saliva pH 6.8.
FIG. 3 graphically depicts 1 oxapine Solutions-diffusion through Porcine buccal mucosa (fresh mucosa kept at 4C for 48 hours) (Franz cell 1.76 cm2; 37° C.); saliva pH 6.8.
These penetration enhancers include sulphoxides (dimethylsulphoxide, decylmethyl sulfoxide), azones (laurocapram), pyrrolidones (2pyrrolidone, 2P), alcohols/alkanols (ethanol or decanol), glycols (propylene glycol), surfactants (anionic, sodium lauryl sulfate, sodium decyl sulfate), (Nonionic, Tween, PLE), (Cationic, chitosan, cetylpyridinium chloride), terpenes (1,8-cineole, menthol, and menthone, D-limonene), fatty acids (oleic acid, sodium caprate), and bile salts (sodium deoxycholate, sodium deoxyglycocholate).

On to `CN1CCN(C2=Nc3ccccc3Oc3ccc(Cl)cc32)CC1` [loxapine, 2-chloro-11-(4-methylpiperazin-1-yl) dibenzo[b,f] [1,4] loxazepine], for which the “absorption of loxapine through oral mucosa” value is listed as “significantly enhanced”.
